Experimental data reported in ChEMBL document CHEMBL1759969 (Bioorg Med Chem Lett, 2011).
pEC50: −log10 of the molar value.

Chains of the proteins cited; added tags and fusions are not shown.
UniProt P48039, whole entry: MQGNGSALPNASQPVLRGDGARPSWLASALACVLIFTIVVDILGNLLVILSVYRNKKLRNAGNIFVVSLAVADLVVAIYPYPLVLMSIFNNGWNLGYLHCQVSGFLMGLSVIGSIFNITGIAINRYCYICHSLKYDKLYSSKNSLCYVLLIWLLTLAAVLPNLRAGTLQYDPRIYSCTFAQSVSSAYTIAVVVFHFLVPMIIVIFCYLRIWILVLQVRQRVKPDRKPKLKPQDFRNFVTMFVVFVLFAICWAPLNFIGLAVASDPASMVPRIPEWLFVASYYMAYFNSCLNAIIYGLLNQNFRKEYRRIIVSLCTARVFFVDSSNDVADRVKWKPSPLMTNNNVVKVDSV

Biological target: Melatonin receptor type 1A (Homo sapiens, UniProt P48039)
Experiment: Agonist activity at human MT1 receptor expressed in CHO cells by [35S]GTPgamma binding assay
Format: functional, cell-based

**Q.** `CCCC(=O)NCCn1ccc2ccc(OC)nc21` was tested. Which pEC50 did it give?
**A.** Its pEC50 is 8.68.
